This experiment concerns the target EGFR T790M L858R (Homo sapiens, UniProt P00533, L858R/T790M). Description: biochemical. The following applies: EGFR(T790M/L858R) Ki (μM), 5 μM ATP, 30 min, room temperature; apparent Ki (Morrison) converted by Cheng-Prusoff, Km of ATP 1.3 μM.

Sequences of proteins named here, by UniProt entry; tags and fusion partners are left off. Residues count along the entry.
UniProt P00533, 25-1210 T790M/L858R limits assumed: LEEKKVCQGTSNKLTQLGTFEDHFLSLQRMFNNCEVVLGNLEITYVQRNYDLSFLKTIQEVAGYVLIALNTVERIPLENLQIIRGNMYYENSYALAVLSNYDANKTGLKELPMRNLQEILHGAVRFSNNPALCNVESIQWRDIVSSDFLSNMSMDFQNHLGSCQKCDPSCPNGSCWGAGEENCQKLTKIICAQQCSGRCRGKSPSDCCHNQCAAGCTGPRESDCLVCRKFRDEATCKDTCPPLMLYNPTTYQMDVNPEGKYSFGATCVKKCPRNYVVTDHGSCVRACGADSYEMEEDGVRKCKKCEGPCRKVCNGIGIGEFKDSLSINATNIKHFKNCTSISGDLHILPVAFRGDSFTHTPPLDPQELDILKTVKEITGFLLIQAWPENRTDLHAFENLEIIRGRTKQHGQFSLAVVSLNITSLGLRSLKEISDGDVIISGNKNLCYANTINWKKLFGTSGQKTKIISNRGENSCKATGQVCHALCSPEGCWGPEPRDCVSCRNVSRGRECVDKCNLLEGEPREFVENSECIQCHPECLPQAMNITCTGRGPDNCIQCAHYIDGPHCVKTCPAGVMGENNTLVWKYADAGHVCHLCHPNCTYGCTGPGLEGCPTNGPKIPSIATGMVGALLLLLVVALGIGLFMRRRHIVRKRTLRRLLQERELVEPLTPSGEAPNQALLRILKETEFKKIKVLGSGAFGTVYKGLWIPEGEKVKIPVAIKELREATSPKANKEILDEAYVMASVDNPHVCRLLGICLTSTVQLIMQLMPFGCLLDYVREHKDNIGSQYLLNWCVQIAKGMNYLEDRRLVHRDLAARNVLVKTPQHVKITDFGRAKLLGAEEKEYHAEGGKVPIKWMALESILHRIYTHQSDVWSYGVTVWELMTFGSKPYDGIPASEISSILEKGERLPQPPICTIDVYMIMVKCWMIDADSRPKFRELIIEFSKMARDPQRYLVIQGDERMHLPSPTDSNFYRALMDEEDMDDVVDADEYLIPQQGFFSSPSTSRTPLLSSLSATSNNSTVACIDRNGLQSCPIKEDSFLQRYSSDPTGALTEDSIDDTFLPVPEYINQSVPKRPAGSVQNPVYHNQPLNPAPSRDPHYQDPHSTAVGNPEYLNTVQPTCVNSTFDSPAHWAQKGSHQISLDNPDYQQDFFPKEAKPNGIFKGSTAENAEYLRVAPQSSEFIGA

In the case of `CC(C)n1cnc2cnc(Nc3ccnc(N4CC(NS(C)(=O)=O)C4)n3)cc21` [Example 75, N-(1-(4-(1-isopropyl-1H-imidazo[4,5-c]pyridin-6-ylamino)pyrimidin-2-yl)azetidin-3-yl)methanesulfonamide], the Ki turned out to be 0.574 µM.

As for `CC(C)n1cnc2cnc(Nc3ccnc(N4CC(NC(N)=O)C4)n3)cc21` [Example 76, 1-(1-(4-(1-isopropyl-1H-imidazo[4,5-c]pyridin-6-ylamino)pyrimidin-2-yl)azetidin-3-yl)urea], the Ki worked out at 1.16 µM.

For the compound `CC(C)n1cnc2cnc(Nc3ccnc(N4CCC(C(N)=O)C4)n3)cc21` (stereo not drawn) [Example 77, 1-(4-(1-isopropyl-1H-imidazo[4,5-c]pyridin-6-ylamino)pyrimidin-2-yl)pyrrolidine-3-carboxamide], the Ki was found to be 0.494 µM.

`CC(C)n1cnc2cnc(Nc3ccnc(N4CCC(NS(C)(=O)=O)CC4)n3)cc21` [Example 78, N-(1-(4-(1-isopropyl-1H-imidazo[4,5-c]pyridin-6-ylamino)pyrimidin-2-yl)piperidin-4-yl)methanesulfonamide]: the Ki stood at 0.428 µM.

For the compound `CC(C)n1cnc2cnc(Nc3ccnc(N4CC(N)C4)n3)cc21` [Example 79, N-(2-(3-aminoazetidin-1-yl)pyrimidin-4-yl)-1-isopropyl-1H-imidazo[4,5-c]pyridin-6-amine], the Ki is 0.426 µM.

Consider `CC(C)n1cnc2cnc(Nc3ccnc(N4CCC(C(=O)N(C)C)C4)n3)cc21` (stereo not drawn) [Example 80, 1-(4-(1-isopropyl-1H-imidazo[4,5-c]pyridin-6-ylamino)pyrimidin-2-yl)-N,N-dimethylpyrrolidine-3-carboxamide], for which the Ki amounted to 1.69 µM.

For `CC(C)n1cnc2cnc(Nc3ccnc(N4CCN(C5COC5)CC4)n3)cc21` [Example 81, 1-isopropyl-N-(2-(4-(oxetan-3-yl)piperazin-1-yl)pyrimidin-4-yl)-1H-imidazo[4,5-c]pyridin-6-amine], the Ki came out at 1 µM.

With `COCCCNc1nccc(Nc2cc3c(cn2)ncn3C(C)C)n1` [Example 82, N4-(1-isopropyl-1H-imidazo[4,5-c]pyridin-6-yl)-N2-(3-methoxypropyl)pyrimidine-2,4-diamine], the Ki is 0.756 µM.

As to `CC(C)n1cnc2cnc(Nc3ccnc(N4CCN(C)C(C(N)=O)C4)n3)cc21` (stereo not drawn) [Example 83, 4-(4-(1-isopropyl-1H-imidazo[4,5-c]pyridin-6-ylamino)pyrimidin-2-yl)-1-methylpiperazine-2-carboxamide], the Ki is 0.243 µM.

For `CC(C)n1cnc2cnc(Nc3ccnc(-c4cnc(N)nc4)n3)cc21` [Example 84, N4-(1-isopropyl-1H-imidazo[4,5-c]pyridin-6-yl)-2,5′-bipyrimidine-2′,4-diamine], the Ki came to 0.111 µM.

For `CC(C)n1cnc2cnc(Nc3ccnc(NCC(C)(C)C(N)=O)n3)cc21` [Example 85, 3-(4-(1-isopropyl-1H-imidazo[4,5-c]pyridin-6-ylamino)pyrimidin-2-ylamino)-2,2-dimethylpropanamide], the Ki came to 0.0452 µM.

Consider `CC(C)n1cnc2cnc(Nc3ccnc(OCCCO)n3)cc21` [Example 86, 3-(4-(1-isopropyl-1H-imidazo[4,5-c]pyridin-6-ylamino)pyrimidin-2-yloxy)propan-1-ol], for which the Ki was determined as 1.67 µM.

As for `CC(C)n1cnc2cnc(Nc3ccnc(N4CCN5C(=O)OCC5C4)n3)cc21` (stereo not drawn) [Example 87, 7-(4-(1-isopropyl-1H-imidazo[4,5-c]pyridin-6-ylamino)pyrimidin-2-yl)-tetrahydro-1H-oxazolo[3,4-a]pyrazin-3(5H)-one], the Ki worked out at 1.42 µM.

As for `CC(C)n1cnc2cnc(Nc3ccnc(N4CCC(OCC(N)=O)CC4)n3)cc21` [Example 88, 2-(1-(4-(1-isopropyl-1H-imidazo[4,5-c]pyridin-6-ylamino)pyrimidin-2-yl)piperidin-4-yloxy)acetamide], the Ki came to 0.241 µM.

Take `CC(C)n1cnc2cnc(Nc3ccnc(NCCC(N)=O)n3)cc21` [Example 89, 3-(4-(1-isopropyl-1H-imidazo[4,5-c]pyridin-6-ylamino)pyrimidin-2-ylamino)propanamide]: the Ki came to 0.439 µM.

Regarding `CC(C)n1cnc2cnc(Nc3ccnc(OCC(C)(C)CO)n3)cc21` [Example 90, 3-(4-(1-isopropyl-1H-imidazo[4,5-c]pyridin-6-ylamino)pyrimidin-2-yloxy)-2,2-dimethylpropan-1-ol], the Ki came to 0.327 µM.

As for `Cc1nc2cnc(Nc3ccnc(-c4cccc(S(C)(=O)=O)c4)n3)cc2n1C(C)C` [Example 92, 1-isopropyl-2-methyl-N-(2-(3-(methylsulfonyl)phenyl)pyrimidin-4-yl)-1H-imidazo[4,5-c]pyridin-6-amine], the Ki is 0.195 µM.

As for `COCCS(=O)(=O)n1cc(-c2nccc(Nc3cc4c(cn3)nc(C)n4C(C)C)n2)cn1` [Example 93, 1-isopropyl-N-(2-(1-((2-methoxyethyl)sulfonyl)-1H-pyrazol-4-yl)pyrimidin-4-yl)-2-methyl-1H-imidazo[4,5-c]pyridin-6-amine], the Ki was determined as 0.0023 µM.

Turning to `CC(C)n1cnc2cnc(Nc3ccnc(-c4cnc(O)nc4)n3)cc21` [Example 94, 4-((1-isopropyl-1H-imidazo[4,5-c]pyridin-6-yl)amino)-[2,5′-bipyrimidin]-2′-ol], the Ki was 0.434 µM.

For `CC(C)n1cnc2cnc(Nc3ccnc(-c4cnn(CCO)c4)n3)cc21` [Example 95, 2-(4-(4-((1-isopropyl-1H-imidazo[4,5-c]pyridin-6-yl)amino)pyrimidin-2-yl)-1H-pyrazol-1-yl)ethanol], the Ki is 0.232 µM.

For `CC(C)n1cnc2cnc(Nc3ccnc(-c4cn[nH]c4)n3)cc21` [Example 96, N-(2-(1H-pyrazol-4-yl)pyrimidin-4-yl)-1-isopropyl-1H-imidazo[4,5-c]pyridin-6-amine], the Ki is 0.111 µM.

For `CC(C)n1cnc2cnc(Nc3ccnc(-c4cnn(S(=O)(=O)C5CC5)c4)n3)cc21` [Example 97, N-(2-(1-(cyclopropylsulfonyl)-1H-pyrazol-4-yl)pyrimidin-4-yl)-1-isopropyl-1H-imidazo[4,5-c]pyridin-6-amine], the Ki was 0.0035 µM.

As to `CC(C)n1cc(-c2nccc(Nc3cc4c(cn3)ncn4C(C)C)n2)cn1` [Example 98, 1-isopropyl-N-(2-(1-isopropyl-1H-pyrazol-4-yl)pyrimidin-4-yl)-1H-imidazo[4,5-c]pyridin-6-amine], the Ki was 0.182 µM.

As for `COc1ncc(-c2nccc(Nc3cc4c(cn3)ncn4C(C)C)n2)cn1` [Example 99, 1-isopropyl-N-(2′-methoxy-[2,5′-bipyrimidin]-4-yl)-1H-imidazo[4,5-c]pyridin-6-amine], the Ki is 0.361 µM.

As to `CCOC1CCN(c2nccc(Nc3cc4c(cn3)ncn4C(C)C)n2)CC1` [Example 100, N-(2-(4-ethoxypiperidin-1-yl)pyrimidin-4-yl)-1-isopropyl-1H-imidazo[4,5-c]pyridin-6-amine], the Ki stood at 0.115 µM.

On to `CC(C)n1cnc2cnc(Nc3ccnc(N4CC5(CCOCC5)C4)n3)cc21` [Example 103, N-(2-(7-oxa-2-azaspiro[3.5]nonan-2-yl)pyrimidin-4-yl)-1-isopropyl-1H-imidazo[4,5-c]pyridin-6-amine], for which the Ki turned out to be 1.44 µM.

With `CC(C)n1cnc2cnc(Nc3ccnc(NC4CCCS(=O)(=O)C4)n3)cc21` (stereo not drawn) [Example 106, 3-((4-((1-isopropyl-1H-imidazo[4,5-c]pyridin-6-yl)amino)pyrimidin-2-yl)amino)tetrahydro-2H-thiopyran 1,1-dioxide], the Ki is 1.32 µM.

In the case of `CC(C)n1cnc2cnc(Nc3ccnc(N4CCC5(COC5)C4)n3)cc21` [Example 107, N-(2-(2-oxa-6-azaspiro[3.4]octan-6-yl)pyrimidin-4-yl)-1-isopropyl-1H-imidazo[4,5-c]pyridin-6-amine], the Ki stood at 0.241 µM.

Consider `CC(C)n1cnc2cnc(Nc3ccnc(NC4CC(O)C4)n3)cc21` (stereo not drawn) [Example 108, 3-((4-((1-isopropyl-1H-imidazo[4,5-c]pyridin-6-yl)amino)pyrimidin-2-yl)amino)cyclobutanol], for which the Ki was 0.432 µM.

Take `Cc1nc2cnc(Nc3ccnc(N4Cc5cn[nH]c5C(C)(C)C4)n3)cc2n1C(C)C` [Example 111, N-(2-(7,7-dimethyl-6,7-dihydro-1H-pyrazolo[4,3-c]pyridin-5(4H)-yl)pyrimidin-4-yl)-1-isopropyl-2-methyl-1H-imidazo[4,5-c]pyridin-6-amine]: the Ki stood at 0.0744 µM.

For the compound `CNS(=O)(=O)CCNc1nccc(Nc2cc3c(cn2)ncn3C(C)C)n1` [Example 112, 2-((4-((1-isopropyl-1H-imidazo[4,5-c]pyridin-6-yl)amino)pyrimidin-2-yl)amino)-N-methylethanesulfonamide], the Ki turned out to be 1.35 µM.

For the compound `Cc1nc2cnc(Nc3ccnc(NCC(C)(C)C(N)=O)n3)cc2n1C(C)C` [Example 113, 3-((4-((1-isopropyl-2-methyl-1H-imidazo[4,5-c]pyridin-6-yl)amino)pyrimidin-2-yl)amino)-2,2-dimethylpropanamide], the Ki is 0.024 µM.

Consider `COC1CCN(c2nccc(Nc3cc4c(cn3)c(C(=O)NC3CCN(C)CC3)cn4C(C)C)n2)CC1` [Example 114, 1-isopropyl-6-((2-(4-methoxypiperidin-1-yl)pyrimidin-4-yl)amino)-N-(1-methylpiperidin-4-yl)-1H-pyrrolo[3,2-c]pyridine-3-carboxamide], for which the Ki is 0.0012 µM.

As for `COC1CCN(c2nccc(Nc3cc4c(cn3)c(C(=O)O)cn4C(C)C)n2)CC1` [Example 116, 1-isopropyl-6-((2-(4-methoxypiperidin-1-yl)pyrimidin-4-yl)amino)-1H-pyrrolo[3,2-c]pyridine-3-carboxylic acid], the Ki stood at 0.0247 µM.

Turning to `COC1CCN(c2nccc(Nc3cc4c(cn3)c(C(=O)NC3CCOCC3)cn4C(C)C)n2)CC1` [Example 117, 1-isopropyl-6-((2-(4-methoxypiperidin-1-yl)pyrimidin-4-yl)amino)-N-(tetrahydro-2H-pyran-4-yl)-1H-pyrrolo[3,2-c]pyridine-3-carboxamide], the Ki was 0.0037 µM.

Take `COC1CCN(c2nccc(Nc3cc4c(cn3)c(C(=O)N3CCOCC3)cn4C(C)C)n2)CC1` [Example 118, (1-isopropyl-6-((2-(4-methoxypiperidin-1-yl)pyrimidin-4-yl)amino)-1H-pyrrolo[3,2-c]pyridin-3-yl)(morpholino)methanone]: the Ki turned out to be 0.0886 µM.

(Values after patent publication US9890152B2 (Genentech, Inc., priority 2012, dated 2018).)
